Here are results for 108 compounds from PubChem BioAssay AID602440 (Sanford-Burnham Center for Chemical Genomics, 2012).

Chains of the proteins cited; added tags and fusions are not shown.
UniProt Q96LD8, whole entry: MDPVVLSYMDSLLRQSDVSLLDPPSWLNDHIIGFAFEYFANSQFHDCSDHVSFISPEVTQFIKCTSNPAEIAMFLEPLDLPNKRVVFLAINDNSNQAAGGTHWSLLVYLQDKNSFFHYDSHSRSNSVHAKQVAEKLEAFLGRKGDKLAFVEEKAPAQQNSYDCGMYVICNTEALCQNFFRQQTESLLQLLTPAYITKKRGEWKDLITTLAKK

As usually defined, the inhibition is the relative decrease from the control value, in per cent.

The list shows a part of the results, in another mix than the full data. Calls of active or inactive are those of the source. No stated cut-off is given here; in the data, active means inhibition mostly above about 40% (no sharp cut-off); inactive means mostly below about 27%.

In the assay the target is Sentrin-specific protease 8 (Homo sapiens) (UniProt Q96LD8). In words: human SENP8 protease inhibitors, primary screen, biochemical, fluorescence, Nedd8 protein substrate, uHTS (AID 602440). Particulars: recombinant SENP8, Nedd8 substrate fluorescence; at 20 µM; active compounds read high.
Turning to `O=C(NCC1(N2CCOCC2)CCCCC1)c1cc2ccccc2o1`, the inhibition was inactive: -18.2%.

With `Cc1cc(C)cc(N(C(=O)c2ccccc2)C2CCN(C(=O)OC(C)(C)C)CC2)c1`, the inhibition is inactive: 16.4%.

`O=c1[nH]c2ccccc2n1C1CCN(C(c2ccccc2OC(F)(F)F)c2nnnn2C2CCCCC2)CC1` (stereo not drawn): the inhibition was inactive: 28.2%.

`O=C(NCC1(N2CCCCC2)CCCCC1)c1ccc(Cl)nc1`: the inhibition was inactive: 11.1%.

On to `CCCCn1nnnc1C(c1ccc(OC)cc1)N1CCC(n2c(=O)[nH]c3ccccc32)CC1` (stereo not drawn), for which the inhibition is inactive: 13.9%.

As to `CCOC(=O)N1CCC(Nc2ccc(OC)cc2)CC1`, the inhibition is inactive: 21.5%.

With `COc1ccc(Cl)cc1C(=O)NCC1(N2CCOCC2)CCCCC1`, the inhibition is inactive: 0.6%.

As for `O=c1[nH]c2ccccc2n1C1CCN(C(c2cc3ccccc3o2)c2nnnn2C2CCCCC2)CC1` (stereo not drawn), the inhibition is inactive: 14.4%.

With `O=C(OC1CN2CCC1CC2)C1c2ccccc2Oc2ccccc21` (stereo not drawn), the inhibition was inactive: -50.8%.

Consider `N#CC1(Nc2ccccc2)CCN(Cc2ccccc2)CC1`, for which the inhibition was inactive: 26.5%.

`O=C(NCC1(N2CCCCC2)CCCCC1)c1ccc(Cl)s1`: the inhibition is inactive: 6.1%.

`CCCCn1nnnc1C(c1cccs1)N1CCC(n2c(=O)[nH]c3ccccc32)CC1` (stereo not drawn): the inhibition was inactive: 12.6%.

In the case of `CCCCn1nnnc1C(CC)N1CCC(n2c(=O)[nH]c3ccccc32)CC1` (stereo not drawn), the inhibition is inactive: 16%.

Consider `O=C(NCC1(N2CCCCC2)CCCCC1)c1cccs1`, for which the inhibition is inactive: 4%.

In the case of `O=C(NCC1(N2CCCCC2)CCCCC1)c1ccc(=O)[nH]c1`, the inhibition was inactive: 14.6%.

As for `CCC(c1nnnn1C1CCCC1)N1CCC(n2c(=O)[nH]c3ccccc32)CC1` (stereo not drawn), the inhibition was inactive: 11.3%.

For the compound `COc1ccc(C(=O)NCC2(N3CCCCC3)CCCCC2)c(OC)c1OC`, the inhibition is inactive: 5.2%.

Consider `CC(C)(C)OC(=O)N1CCC(N(C(=O)c2ccccc2)c2ccc(F)cc2)CC1`, for which the inhibition is inactive: 9.7%.

As to `COc1ccc(C(=O)NCC2(N3CCCCC3)CCCCC2)cc1`, the inhibition is inactive: 6.4%.

In the case of `Cc1cccc(NC2(C#N)CCN(Cc3ccccc3)CC2)c1`, the inhibition was inactive: 10%.

For `CSc1ccccc1C(=O)NCC1(N2CCCCC2)CCCCC1`, the inhibition was inactive: 15.6%.

Consider `O=c1[nH]c2ccccc2n1C1CCN(C(c2ccccc2)c2nnnn2C2CCCCC2)CC1` (stereo not drawn), for which the inhibition was inactive: 9.8%.

Take `O=c1[nH]c2ccccc2n1C1CCN(C(c2cccc3ccccc23)c2nnnn2C2CCCC2)CC1` (stereo not drawn): the inhibition is inactive: 10%.

With `COc1cc(C(=O)NCC2(N(C)C)CCCCC2)ccc1OC(F)F`, the inhibition was inactive: 17.7%.

With `CCOC(=O)N1CCC(Nc2cccc(C)c2)CC1`, the inhibition was inactive: 0.9%.

Turning to `CCOc1ccc(C)cc1CN(CCCl)CCCl`, the inhibition is inactive: 16.7%.

For `O=C1CCN(Cc2ccccc2)CC1`, the inhibition was inactive: 0.5%.

Regarding `CC(C)(C)n1nnnc1C(c1ccccc1)N1CCC(n2c(=O)[nH]c3ccccc32)CC1` (stereo not drawn), the inhibition was inactive: 23.2%.

Turning to `CCOC(=O)N1CCC(Nc2ccc(F)cc2)CC1`, the inhibition was inactive: 17.3%.

In the case of `COc1ccc(NC2CCN(CCc3ccccc3)CC2)c(OC)c1`, the inhibition was inactive: 7.5%.

Take `O=C(NCC1(N2CCCCC2)CCCCC1)c1ccc(F)cc1`: the inhibition was inactive: 4.1%.

Turning to `CCCCOc1ccc(C(=O)NCC2(N3CCOCC3)CCCCC2)cc1`, the inhibition was inactive: -3.3%.

On to `O=P1(N(CCCl)CCCl)SCCCS1`, for which the inhibition was inactive: 9.8%.

For the compound `CCCCn1nnnc1C(c1cc2ccccc2o1)N1CCC(n2c(=O)[nH]c3ccccc32)CC1` (stereo not drawn), the inhibition is inactive: 31%.

In the case of `O=C(NCC1(N2CCCCC2)CCCCC1)c1cccc(C(F)(F)F)c1`, the inhibition is inactive: 12.6%.

For `CCCCn1nnnc1C(c1cccc2ccccc12)N1CCC(n2c(=O)[nH]c3ccccc32)CC1` (stereo not drawn), the inhibition is inactive: 1.9%.

Consider `COc1ccc(NC2CCN(C(=O)OC(C)(C)C)CC2)cc1`, for which the inhibition was inactive: 13.1%.

For the compound `CC(C)c1ccc(C(=O)NCC2(N3CCOCC3)CCCCC2)cc1`, the inhibition is inactive: 3%.

As for `CN1CCN(CCOC(=O)C(O)(c2ccccc2)c2ccccc2)CC1`, the inhibition is inactive: 17.8%.

Turning to `O=C(NCC1(N2CCOCC2)CCCCC1)c1cc(=O)[nH]c2ccccc12`, the inhibition is inactive: -53.9%.

`COc1cc(C(=O)NCC2(N3CCCCC3)CCCCC2)ccc1OC(F)F`: the inhibition was inactive: 4%.

For `O=C(NCC1(N2CCCCC2)CCCCC1)c1ccc(OC(F)F)cc1`, the inhibition is inactive: -1.7%.

As for `CC(C)(C)n1nnnc1C(c1ccccc1OC(F)(F)F)N1CCC(n2c(=O)[nH]c3ccccc32)CC1` (stereo not drawn), the inhibition is inactive: 2.2%.

Consider `CSc1ccc(C(=O)NCC2(N3CCOCC3)CCCCC2)cc1`, for which the inhibition was inactive: 0.8%.

As for `O=C(NCC1(N2CCCCC2)CCCCC1)c1cccc([N+](=O)[O-])c1`, the inhibition was inactive: 10.5%.

Consider `N#CC1(Nc2ccccc2)CCN(CCc2ccccc2)CC1`, for which the inhibition was inactive: 7.1%.

Consider `O=c1[nH]c2ccccc2n1C1CCN(C(c2ccccc2OC(F)(F)F)c2nnnn2C2CCCC2)CC1` (stereo not drawn), for which the inhibition is inactive: 8.6%.

Consider `CCN1CCC(Nc2ccc(Cl)cc2)CC1`, for which the inhibition was inactive: 5.3%.

Regarding `O=C(NCC1(N2CCCCC2)CCCCC1)c1cncc(Br)c1`, the inhibition was inactive: 5.1%.

With `CN1CCC(Nc2cccc(F)c2)CC1`, the inhibition is inactive: 12.8%.

Turning to `CCCOc1ccc(C(=O)NCC2(N(C)C)CCCCC2)cc1OC`, the inhibition was inactive: 7.6%.

Turning to `Cc1ccc(C(=O)NCC2(N(C)C)CCCCC2)o1`, the inhibition was inactive: 22.3%.

Consider `COc1ccc(C(c2nnnn2C2CCCC2)N2CCC(n3c(=O)[nH]c4ccccc43)CC2)cc1` (stereo not drawn), for which the inhibition was inactive: 11.1%.

In the case of `CN(C)c1cccc(C(=O)NCC2(N3CCCCC3)CCCCC2)c1`, the inhibition is inactive: -178%.

Turning to `COc1ccc(CN(CCCl)CCCl)cc1Cl`, the inhibition is inactive: 7.1%.

Take `CC(C)c1ccc(NC2CCN(C(=O)OC(C)(C)C)CC2)cc1`: the inhibition was inactive: 7.9%.

Regarding `CCCCn1nnnc1C(c1ccccc1OC(F)(F)F)N1CCC(n2c(=O)[nH]c3ccccc32)CC1` (stereo not drawn), the inhibition is inactive: 11.6%.

Take `CCCCn1nnnc1C(c1ccnc2ccccc12)N1CCC(n2c(=O)[nH]c3ccccc32)CC1` (stereo not drawn): the inhibition was inactive: 13.6%.

As to `CCC(c1nnnn1C(C)(C)C)N1CCC(n2c(=O)[nH]c3ccccc32)CC1` (stereo not drawn), the inhibition is inactive: 15.4%.

Take `O=C(NCC1(N2CCOCC2)CCCCC1)c1cc(F)c(F)cc1Cl`: the inhibition is inactive: 10%.

Turning to `COc1cc(OC)c(C(=O)NCC2(N(C)C)CCCCC2)cc1OC`, the inhibition was inactive: 6.1%.

With `N/C(=N\O)c1c(N)no[n+]1[O-]`, the inhibition is inactive: 28.2%.

With `COc1cccc(C(c2nnnn2C(C)(C)C)N2CCC(n3c(=O)[nH]c4ccccc43)CC2)c1OC` (stereo not drawn), the inhibition was inactive: 32%.

As to `CCOC(=O)N1CCC(Nc2ccc(C)cc2)CC1`, the inhibition was inactive: 6.1%.

Turning to `CCCCn1nnnc1C(c1cccc(OC)c1OC)N1CCC(n2c(=O)[nH]c3ccccc32)CC1` (stereo not drawn), the inhibition was inactive: 11.8%.

For the compound `O=c1[nH]c2ccccc2n1C1CCN(C(c2cccs2)c2nnnn2C2CCCC2)CC1` (stereo not drawn), the inhibition is inactive: 14%.

In the case of `O=C(OC1CN2CCC1CC2)C1c2ccccc2C=Cc2ccccc21` (stereo not drawn), the inhibition was inactive: -1.1%.

In the case of `O=C(NCC1(N2CCOCC2)CCCCC1)c1cc(Br)ccc1Cl`, the inhibition was inactive: 21%.

With `COc1cc(C(=O)NCC2(N3CCOCC3)CCCCC2)cc(OC)c1C`, the inhibition is inactive: 8.7%.

On to `CCCCn1nnnc1C(c1ccccc1)N1CCC(n2c(=O)[nH]c3ccccc32)CC1` (stereo not drawn), for which the inhibition was inactive: 15.9%.

As for `O=c1[nH]c2ccccc2n1C1CCN(C(c2ccnc3ccccc23)c2nnnn2C2CCCC2)CC1` (stereo not drawn), the inhibition is inactive: 18.2%.

In the case of `COc1ccc(C(=O)NCC2(N3CCOCC3)CCCCC2)cc1OC`, the inhibition is inactive: 10.1%.

Consider `O=c1[nH]c2ccccc2n1C1CCN(C(c2cccs2)c2nnnn2C2CCCCC2)CC1` (stereo not drawn), for which the inhibition is inactive: 29.2%.

As to `CCCN1CCC(Nc2cc(OC)cc(OC)c2)CC1`, the inhibition is inactive: 8.8%.

For `O=c1[nH]c2ccccc2n1C1CCN(C(c2ccccc2)c2nnnn2C2CCCC2)CC1` (stereo not drawn), the inhibition is inactive: 14.4%.

Regarding `Cc1cc(N(CCCl)CCCl)ccc1C=O`, the inhibition is inactive: -32.7%.

Regarding `c1ccc(CN2CCC(Nc3ccccc3)CC2)cc1`, the inhibition was inactive: 19.2%.

Turning to `CN(C)C1(CNC(=O)c2cccc(C#N)c2)CCCCC1`, the inhibition is inactive: 18.7%.

As to `CC(C)(C)n1nnnc1C(c1cccc2ccccc12)N1CCC(n2c(=O)[nH]c3ccccc32)CC1` (stereo not drawn), the inhibition was inactive: 21.1%.

`CC(C)(C)OC(=O)N1CCC(N(C(=O)c2ccccc2)c2ccc(Cl)cc2)CC1`: the inhibition is inactive: 6.4%.

Take `N#Cc1ccc(C(=O)NCC2(N3CCCCC3)CCCCC2)cc1`: the inhibition is inactive: 10.9%.

For the compound `CC(C)(C)n1nnnc1C(c1ccnc2ccccc12)N1CCC(n2c(=O)[nH]c3ccccc32)CC1` (stereo not drawn), the inhibition was inactive: 17.3%.

With `COc1ccc(C(c2nnnn2C2CCCCC2)N2CCC(n3c(=O)[nH]c4ccccc43)CC2)cc1` (stereo not drawn), the inhibition was inactive: 15.9%.

For `CCN1CCC(Nc2cccc(F)c2)CC1`, the inhibition was inactive: 10.4%.

Consider `Cc1ccccc1NC1(C#N)CCN(Cc2ccccc2)CC1`, for which the inhibition was inactive: 8%.

As to `Cn1c(=O)[nH]cc(N(CCCl)CCCl)c1=O`, the inhibition is inactive: 8.1%.

On to `CN(C)c1ccc(C(=O)NCC2(N3CCCCC3)CCCCC2)cc1`, for which the inhibition is inactive: 2%.

For `O=C(NCC1(N2CCCCC2)CCCCC1)c1ccco1`, the inhibition is inactive: 15.3%.

In the case of `O=c1[nH]c2ccccc2n1C1CCN(C(c2ccnc3ccccc23)c2nnnn2C2CCCCC2)CC1` (stereo not drawn), the inhibition was inactive: 7%.

Turning to `COc1cc(OC)cc(C(=O)NCC2(N3CCCCC3)CCCCC2)c1`, the inhibition is inactive: 6.3%.

In the case of `CCC(c1nnnn1C1CCCCC1)N1CCC(n2c(=O)[nH]c3ccccc32)CC1` (stereo not drawn), the inhibition is inactive: 15.2%.

For `CC(=O)N(c1ccccc1)C1CCNCC1`, the inhibition is inactive: 9.4%.

With `COc1cccc(C(c2nnnn2C2CCCCC2)N2CCC(n3c(=O)[nH]c4ccccc43)CC2)c1OC` (stereo not drawn), the inhibition was inactive: 16.9%.

Regarding `Cc1ccc(NC2(C#N)CCN(Cc3ccccc3)CC2)cc1`, the inhibition is inactive: -0.3%.

On to `Fc1ccccc1NC1CCN(Cc2ccccc2)CC1`, for which the inhibition was inactive: 28.3%.

For `Cc1ccc(C(=O)NCC2(N3CCCCC3)CCCCC2)o1`, the inhibition was inactive: 14.6%.

With `CCC(CO)(C(=O)OC1CN2CCC1CC2)c1ccccc1` (stereo not drawn), the inhibition is inactive: 22%.

On to `COc1cccc(C(=O)N(c2cc(C)cc(C)c2)C2CCN(C(=O)OC(C)(C)C)CC2)c1`, for which the inhibition was inactive: 13.6%.

Consider `COc1cccc(C(c2nnnn2C2CCCC2)N2CCC(n3c(=O)[nH]c4ccccc43)CC2)c1OC` (stereo not drawn), for which the inhibition was inactive: 7.8%.

Consider `COc1cc(OC)cc(C(=O)NCC2(N3CCOCC3)CCCCC2)c1`, for which the inhibition is inactive: 3.8%.

With `CN1CCC(Nc2ccc(Cl)cc2)CC1`, the inhibition was inactive: 10.6%.

Turning to `CN1CCC(Nc2ccc(F)c(Cl)c2)CC1`, the inhibition was inactive: 17.7%.

As for `CCOc1ncccc1C(=O)NCC1(N2CCOCC2)CCCCC1`, the inhibition was inactive: 7.4%.

`CCCOc1ccc(C(=O)NCC2(N(C)C)CCCCC2)cc1`: the inhibition is inactive: 20.4%.

In the case of `O=c1[nH]c2ccccc2n1C1CCN(C(c2cc3ccccc3o2)c2nnnn2C2CCCC2)CC1` (stereo not drawn), the inhibition is inactive: 16.5%.

As to `NN(c1ccccc1)C1CCN(CCc2ccccc2)CC1`, the inhibition is inactive: 39%.

Consider `O=C(O)C1(Nc2ccccc2)CCN(Cc2ccccc2)CC1`, for which the inhibition is inactive: 10.5%.

With `CC(C)(C)OC(=O)N1CCC(Nc2ccccc2)CC1`, the inhibition is inactive: 17.7%.
